Measured values from patent publication US8609715B2, “Heteroarylcarboxylic acid ester derivative” (Ajinomoto Co., Inc., priority 2009, dated 2013).

Amino acid sequences for entries named in this document (tags omitted). A change or cut given only in a name is not applied to a line headed by its entry.
UniProt P98073: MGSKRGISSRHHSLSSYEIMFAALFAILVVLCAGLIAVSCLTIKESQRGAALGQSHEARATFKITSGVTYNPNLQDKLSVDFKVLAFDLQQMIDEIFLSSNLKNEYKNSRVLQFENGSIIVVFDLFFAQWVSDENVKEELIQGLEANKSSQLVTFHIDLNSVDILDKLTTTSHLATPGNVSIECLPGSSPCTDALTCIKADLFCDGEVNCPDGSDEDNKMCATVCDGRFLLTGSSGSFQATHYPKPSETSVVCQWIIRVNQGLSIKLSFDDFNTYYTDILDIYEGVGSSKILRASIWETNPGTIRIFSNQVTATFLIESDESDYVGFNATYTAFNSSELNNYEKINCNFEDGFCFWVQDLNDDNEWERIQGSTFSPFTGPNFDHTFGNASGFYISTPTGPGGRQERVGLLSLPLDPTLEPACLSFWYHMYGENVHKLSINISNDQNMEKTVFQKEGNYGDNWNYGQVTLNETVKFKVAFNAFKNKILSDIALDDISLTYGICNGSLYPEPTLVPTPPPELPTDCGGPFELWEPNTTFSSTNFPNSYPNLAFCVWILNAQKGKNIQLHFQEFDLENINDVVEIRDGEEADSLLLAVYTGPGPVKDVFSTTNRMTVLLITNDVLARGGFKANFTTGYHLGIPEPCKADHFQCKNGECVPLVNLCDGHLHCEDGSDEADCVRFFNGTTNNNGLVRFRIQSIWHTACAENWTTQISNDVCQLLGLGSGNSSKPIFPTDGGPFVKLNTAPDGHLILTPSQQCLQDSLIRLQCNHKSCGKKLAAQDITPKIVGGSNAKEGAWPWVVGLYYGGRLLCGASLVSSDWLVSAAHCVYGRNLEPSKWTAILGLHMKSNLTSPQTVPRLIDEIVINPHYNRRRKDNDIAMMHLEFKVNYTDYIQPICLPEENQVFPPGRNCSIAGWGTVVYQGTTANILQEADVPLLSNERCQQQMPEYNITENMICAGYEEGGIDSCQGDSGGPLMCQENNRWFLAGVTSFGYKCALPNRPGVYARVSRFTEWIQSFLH

Molecular target: recombinant human enteropeptidase (Homo sapiens (Human), UniProt P98073)
Assay: Measurement of enteropeptidase inhibitory activity
Assay type: biochemical
Conditions: Dixon plot
Procedure: Measurement of Enteropeptidase Inhibitory Activity
Using a 96 well plate (#3915, Costar), a test compound (25 μL), 400 mM Tris-HCl buffer (pH 8.0, 25 μL) and 0.5 mg/mL fluorescence enzyme substrate (Gly-Asp-Asp-Asp-Asp-Lys-β-Naphtylamide, 25 μL) were mixed, and recombinant human enteropeptidase (R&D Systems, Inc., 25 μL) was added. Using a fluorescence plate reader fmax (Molecular Devices, Inc.), the reaction rate was measured from the time-course changes at excitation wavelength 320 nm and fluorescence wavelength 405 nm. The Ki value was calculated from the concentration of the test compound, reciprocal of reaction rate, and Km value of the enzyme substrate, and by using Dixon plot.

CC(Cc1ccc(C(=O)Oc2ccc(C(=N)N)cc2)s1)C(=O)N[C@@H](CC(=O)O)C(=O)O (stereo partly shown) [Compound B-18]
Ki: 1.36 nM
